The target of this test is Ferritin light chain (Equus caballus) (UniProt P02791). Description: qHTS Assay for Identification of Novel General Anesthetics. Note: nearly all actives have a fitted effect of over 20% in size. The settings on record: apoferritin/1-aminoanthracene competitive binding, fluorescence. For orientation: In qHTS, concentration-response curves come from the screen itself.
[1] abbreviates: at 77.5 µM (top of the series) unless noted.

Protein sequences, listed by entry. Tags and fused reporters are not part of them. Lines headed by an entry give the natural chain unless they say otherwise; changes in a name come on top.
UniProt P02791: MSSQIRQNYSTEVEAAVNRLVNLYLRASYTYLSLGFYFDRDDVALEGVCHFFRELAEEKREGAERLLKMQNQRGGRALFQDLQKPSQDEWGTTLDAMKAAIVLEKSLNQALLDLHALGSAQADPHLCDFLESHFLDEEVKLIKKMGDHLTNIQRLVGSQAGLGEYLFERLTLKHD

The entries are a selection whose mix differs from that of the whole data set. Inconclusive results are not listed. Calls of active or inactive are those of the source. Calls come from the whole dose curve; as a rule, active = well fitted inhibition curve with a large enough effect; inconclusive = small, poorly fitted or top-dose-only effect; inactive = no such curve, though single readings can be large or run the other way.
% is set by controls: 0 for no effect and ±100 for the full control effect.

Regarding `Cc1cc(SC(NC(=O)c2ccccc2)C(Cl)(Cl)Cl)nc(C(C)C)n1` (stereo not given), under setting [1], the activity change, negative = displacement was inactive: -15.2%.

As to `CCCCOc1ccc(C(=O)NCC2(N3CCCCC3)CCCCC2)cc1OC`, the activity change, negative = displacement under setting [1] was inactive: 3.69%.

For `CCOC(=O)Nc1ccc([As](=O)(O)O)c(O)c1`, the activity change, negative = displacement under setting [1] is inactive: 2.63%.

For `Cc1cc(SC(NC=O)C(Cl)(Cl)Cl)ncn1` (stereo not given), the activity change, negative = displacement under setting [1] was inactive: -5.09%.

For `O=P(Nc1ccccn1)(c1cccc2ccccc12)c1cccc2ccccc12`, the activity change, negative = displacement under setting [1] was inactive: -16.8%.

As for `O=[N+]([O-])c1ccc(Nc2ccc(Oc3ccc([N+](=O)[O-])cc3[N+](=O)[O-])cc2)c([N+](=O)[O-])c1`, under setting [1], the activity change, negative = displacement is inactive: -5.16%.

In the case of `CCOC(=O)Nc1cccc([As](=O)(O)O)c1`, the activity change, negative = displacement under setting [1] is inactive: 23.3%.

As to `O=C(Nc1ccncc1[N+](=O)[O-])c1ccc([N+](=O)[O-])cc1[N+](=O)[O-]`, under setting [1], the activity change, negative = displacement was inactive: -6.23%.

Turning to `O=C(COc1ccccc1)OC1CN2CCC1CC2` (stereo not given), the activity change, negative = displacement under setting [1] was inactive: 1.74%.

For `COP1(=S)c2c(C)nn(CCC#N)c2N=C(c2ccc(F)cc2)N1C` (stereo not given), under setting [1], the activity change, negative = displacement is inactive: -1.68%.

For the compound `CCC(C)N(CC(C)C)C(=S)SC(NC(C)=O)C(Cl)(Cl)Cl` (stereo not given), the activity change, negative = displacement under setting [1] was inactive: 2.46%.

For the compound `O=C(OC1CN2CCC1CC2)c1cccc([N+](=O)[O-])c1` (stereo not given), the activity change, negative = displacement under setting [1] was inactive: 2.79%.

Regarding `CCOC(=O)c1ccc(NC(=O)C(C)(CCl)SC)cc1` (stereo not given), under setting [1], the activity change, negative = displacement was inactive: 5.89%.

Consider `COc1cc(I)ccc1[As](=O)(O)O`, for which, under setting [1], the activity change, negative = displacement is inactive: -3%.

Turning to `COc1ccc2nc(NP(=O)(c3ccccc3)c3ccccc3)sc2c1`, the activity change, negative = displacement under setting [1] was inactive: -1.94%.

Take `Cc1c2c(nc3ccccc13)SC(C(Cl)Cl)C2` (stereo not given): the activity change, negative = displacement under setting [1] was inactive: -12.3%.

In the case of `Cc1cc(=O)[nH]c(N[N+](=O)[O-])n1`, under setting [1], the activity change, negative = displacement is inactive: -4.87%.

With `O=C(OC1CN2CCC1CC2)C12CC3CC(CC(C3)C1)C2` (stereo not given), under setting [1], the activity change, negative = displacement was inactive: -11.6%.

`COc1ccc(N/C(=N/P(=O)(N2CCOCC2)N2CCOCC2)N2CCOCC2)cc1`: the activity change, negative = displacement under setting [1] is inactive: -1.45%.

Take `Cc1ccc(OP(=O)(Nc2ccc([N+](=O)[O-])cn2)Oc2ccc(C)cc2)cc1`: the activity change, negative = displacement under setting [1] was inactive: -3.33%.

Consider `Cc1ccc2nc3c(c(C)c2c1)CC(C(Cl)Cl)S3` (stereo not given), for which the activity change, negative = displacement under setting [1] was inactive: -2.86%.

In the case of `C[As](=O)(O)c1cccc(C(=O)O)c1`, the activity change, negative = displacement under setting [1] was inactive: -0.477%.

With `O=[As](O)(c1ccc(O)cc1)c1ccccc1O`, the activity change, negative = displacement under setting [1] is inactive: -5.65%.

Consider `CC(C)NC(=O)NP(=O)(Oc1ccccc1)Oc1ccccc1`, for which the activity change, negative = displacement under setting [1] is inactive: -5.14%.

As for `CCN(CC)C(=S)SC(NC=O)C(Cl)(Cl)Cl` (stereo not given), the activity change, negative = displacement under setting [1] was inactive: -16%.

On to `ClCCSc1nnc(-c2cccnc2)o1`, for which the activity change, negative = displacement under setting [1] is inactive: -2.95%.

For the compound `CC(C)c1ccc(OP(=O)(Nc2ccccn2)Oc2ccccc2F)cc1` (stereo not given), the activity change, negative = displacement under setting [1] was inactive: -1.42%.

In the case of `O=C(O)COc1ccc([As](=O)(O)O)cc1[N+](=O)[O-]`, the activity change, negative = displacement under setting [1] was inactive: 10.7%.

As for `Nc1ccccc1[As](=O)(O)c1ccccc1`, the activity change, negative = displacement under setting [1] was inactive: -7.29%.

Regarding `O=P(Nc1nccs1)(Oc1ccccc1)Oc1ccccc1`, under setting [1], the activity change, negative = displacement was inactive: -3.19%.

Consider `O=P(Nc1nccs1)(c1ccccc1)c1nc2ccccc2s1` (stereo not given), for which the activity change, negative = displacement under setting [1] was inactive: -8.62%.

As for `CCOP1(=S)c2c(C)nn(CCC#N)c2N=C(c2ccccc2F)N1C` (stereo not given), the activity change, negative = displacement under setting [1] was inactive: 0.133%.

`CS(=O)(=O)c1cc([N+](=O)[O-])c2no[n+]([O-])c2c1`: under setting [1], the activity change, negative = displacement is inactive: -11.3%.

`CCOP1(=S)c2c(C)nn(CCC#N)c2N=C(c2ccc(F)cc2)N1C` (stereo not given): the activity change, negative = displacement under setting [1] is inactive: -12.7%.

Consider `CN(C(=O)Cc1ccccc1)[C@@H]1CC[C@]2(CCCO2)C[C@H]1N1CCCC1`, for which the activity change, negative = displacement under setting [1] was inactive: -11.8%.

In the case of `O=[N+]([O-])c1ccc2c(c1)nnn2O`, the activity change, negative = displacement under setting [1] was inactive: -4.1%.

In the case of `NC(=O)Nc1ccc([As](=O)(O)O)cc1`, the activity change, negative = displacement by setting is: (at 29.3 µM (top of the series)) inactive: 3.6%; (at 77.5 µM (top of the series)) inactive: -5.47%.

For the compound `Cc1cccc(OCC(=O)OC2CN3CCC2CC3)c1` (stereo not given), under setting [1], the activity change, negative = displacement is inactive: -6.94%.

For `O=[As](O)(c1cccc(O)c1)c1cccc(O)c1`, the activity change, negative = displacement under setting [1] was inactive: 0.166%.

On to `CN(C(=O)Cc1ccc(Cl)c(Cl)c1)[C@@H]1CC[C@]2(CCCO2)C[C@H]1N1CCCC1`, for which the activity change, negative = displacement under setting [1] is inactive: -10.2%.

In the case of `O=C(OC1CN2CCC1CC2)c1ccc(Cl)cc1` (stereo not given), under setting [1], the activity change, negative = displacement is inactive: -6.43%.

`CS(=O)(=O)c1ccc(Cl)c(NC(=O)COC(=O)C(O)(c2ccccc2)c2ccccc2)c1`: the activity change, negative = displacement under setting [1] was inactive: -16.7%.

Turning to `O=[As](O)(O)c1cccnc1`, the activity change, negative = displacement under setting [1] was inactive: 1.16%.

With `COc1cc(C(=O)NCC2(N3CCOCC3)CCCCC2)cc(Cl)c1OC(C)C`, under setting [1], the activity change, negative = displacement was inactive: -4.72%.

Take `CCOP(=O)(Nc1cccc2ccccc12)OCC`: the activity change, negative = displacement under setting [1] is inactive: -15.1%.

Regarding `COc1cc(C2NCCC3(OCCO3)C2(C)C)cc(OC)c1OC` (stereo not given), under setting [1], the activity change, negative = displacement was inactive: -2.26%.

On to `Cc1ccc(NCCc2c([N+](=O)[O-])cc([N+](=O)[O-])cc2[N+](=O)[O-])cc1`, for which the activity change, negative = displacement under setting [1] is inactive: -20.7%.

As for `Nc1cccc2c([As](=O)(O)O)cccc12`, the activity change, negative = displacement under setting [1] is inactive: 82.1%.

Regarding `CCCOP(=S)(Nc1nc(N)cc(=O)[nH]1)OCCC`, the activity change, negative = displacement under setting [1] is inactive: -0.44%.

The record behind these values is PubChem BioAssay AID485281 (National Center for Advancing Translational Sciences (NCATS), 2010).
